## Measured affinities in a library of Ab-91 heavy chain variants

Binding partner: SARS-CoV-2 spike HR2 peptide, sequence PDVDLGDISGINAS.

Parent scFv Ab-91: VL joined to VH by a (GGGGS)3 linker. Changes lie in the heavy chain CDRs alone.
VL: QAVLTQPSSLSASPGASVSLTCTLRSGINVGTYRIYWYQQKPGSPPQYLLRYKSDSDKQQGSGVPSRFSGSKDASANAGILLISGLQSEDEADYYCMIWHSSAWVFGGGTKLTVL
VH: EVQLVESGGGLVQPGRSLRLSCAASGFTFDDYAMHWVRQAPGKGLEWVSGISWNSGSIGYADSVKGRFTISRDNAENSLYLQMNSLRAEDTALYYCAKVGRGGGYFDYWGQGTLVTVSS

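In library AAYL51, one, two or three CDR residues were substituted; doubles and triples were drawn at random. In AlphaSeq, yeast of one mating type display the scFv and yeast of the other type display the target. The frequency of each diploid, read from paired DNA barcodes, reflects how well the two displayed proteins bind. Scores were corrected for input abundance and mapped to Kd with protein pairs of known affinity run in the same pool. There are three technical replicates.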

The parent's heavy chain CDRs are GFTFDDYAMH, GISWNSGSIGYADSVK, VGRGGGYFDY; each variant's own CDRs replace them letter for letter.
Values are log10 of the apparent Kd in nM; lower means stronger binding.
The mean shown is taken over the replicates in which the pair was detected.
Where no diploid with the target was found in that replicate, the entry reads "ND": below detection, most likely a poor binder, though not proof of it.
Three control strains display no target. For library AAYL51, 21% of the pairings with them gave a signal, with a median of 4.54 and one signal in twenty below 3.26, so weak values seen in few replicates may be background. The control count says in how many pairings with the empty strains this scFv gave a signal.

GFTFDDYAMH | GISWNSGSIGQADSVK | VGRGGGYFDY: ND, 4.62, ND (controls 4 of 9).
GFTFDDYAVH | GISWNSGSIGYAESVC | VGRGGGYFDY: ND, ND, ND (controls 0 of 9).
GFTFDDYAMH | CISWNSGSIGYADSMK | VGRGGMYFDY: ND, ND, ND (controls 0 of 9).
GFTFDDYAMH | GISWNSGSEGYADDVK | VGRGGGYADY: ND, ND, 4.71 (controls 5 of 9).
GFTFDDYWMH | GIKWNSGSIGYADSVK | VGRGGGYFDY: 4.58, 4.88, 5.85 (mean 5.10; controls 6 of 9).
GFTFDCNAMH | GISWNSNSIGYADSVK | VGRGGGYFDY: 1.59, 1.69, 1.18 (mean 1.49; controls 1 of 9).
GKTFDDYAMH | GISWNGGSIGYADSFK | VGRGGGYFDY: 3.89, 4.29, ND (mean 4.09; controls 2 of 9).
GFTIDDSAMH | GISWNSGSIGYADSVK | VGMGGGYFDY: 2.38, 2.35, 1.26 (mean 2.00; controls 1 of 9).
GFCFDDYAMH | GISWNSGSNGYADSVK | VGRGCGYFDY: 3.09, ND, ND (controls 0 of 9).
GFTHDDYAMH | GISWNSGSIGYADSWK | VGRGGGYFDY: ND, ND, ND (controls 2 of 9).
YFTFDDYAMH | GISWNSGSIGYADSVK | FGRGGGYFDY: ND, ND, ND (controls 1 of 9).
QFTFDDYPMH | GISWNSGSIGYADSVK | VGRGGGYFKY: ND, ND, 2.95 (controls 4 of 9).
GFTFDDYAMH | GISWNSGSIGYADSVH | VGRGGGYGDY: 5.48, 4.56, ND (mean 5.02; controls 2 of 9).
GFTFDDKAMH | GISWNSGSIGYAESNK | VGRGGGYFDY: ND, ND, ND (controls 1 of 9).
GFTFDDYAMH | GISWNSGSKEYADSVK | VGRGGGYFGY: 3.83, 3.16, 3.35 (mean 3.45; controls 3 of 9).
GFTFDDYACH | GISWNSGSIGTADSVK | NGRGGGYFDY: ND, ND, ND (controls 0 of 9).
GFTFDDYAMH | GISWKIGSIGYTDSVK | VGRGGGYFDY: ND, ND, ND (controls 0 of 9).
GFTFDDYAMM | GISWNSGLIGYADPVK | VGRGGGYFDY: ND, ND, ND (controls 1 of 9).
GFTFRDYAMH | GISWNSGSIGYVDSVK | VGRGGGYFDI: 1.98, 2.00, 1.65 (mean 1.88; controls 2 of 9).
GFTFIDYAMH | GISWNSGSIGYEDSVK | VGWGGGYFDY: ND, ND, ND (controls 1 of 9).
EFTKDDYAMH | GISWNSGLIGYADSVK | VGRGGGYFDY: 6.02, 4.39, ND (mean 5.20; controls 0 of 9).
GFTFCNYAMH | GISWNSGSIGYADSVK | VGRGGGYFDQ: 0.53, 0.52, -0.03 (mean 0.34; controls 1 of 9).
GFTFDDYAVH | GISWASGSIGYADSVK | VGRGGGYFDS: ND, ND, ND (controls 3 of 9).
QFTFDDYAMH | GISWNSGSIGYADSVK | VWRGGKYFDY: ND, 5.13, 4.75 (mean 4.94; controls 1 of 9).
GFTFDDYAMH | GISWNSESIGYADSVK | VGRGGGYFDY: 1.28, 0.91, 0.62 (mean 0.94; controls 4 of 9).
GFTFDDYAMH | GDSWNSGSIGAADSVK | VGRGGGYFDY: ND, ND, ND (controls 5 of 9).
GFTFNDYAMH | GISWGSGSIGYADSVK | VFRGGGYFDY: 3.57, ND, ND (controls 1 of 9).
GFTFDDYAMH | GISWNSYSIGYADSVK | VGRGIGYFQY: 3.83, 5.30, ND (mean 4.56; controls 2 of 9).
GFTFDDYAMH | GISWNSGSIGYADPVG | VGWGGGYFDY: 4.67, 4.60, 5.48 (mean 4.92; controls 5 of 9).
GFTFDDDAMH | GISWNSGSIGYADSVK | VGAGGGSFDY: ND, ND, ND (controls 0 of 9).
GNTFDDYAMH | GISWNSGSIGYADSVK | VSRGGGYFDY: 5.68, 4.35, ND (mean 5.02; controls 4 of 9).
GNTFGDYAMH | GISWNHGSIGYADSVK | VGRGGGYFDY: 4.68, ND, ND (controls 2 of 9).
GFTFDDYAMH | GISANSGSIGYADSVK | VGRGDGYFAY: 1.58, 1.82, 1.32 (mean 1.57; controls 1 of 9).
GFTFDDYAMH | GISWNSGSAGYADSVK | VGRGGMYFDY: 3.90, ND, 4.67 (mean 4.29; controls 3 of 9).
GFTFDDYAMY | VISWNSGSIGYADSVK | VGRGGIYFDY: ND, 4.04, ND (controls 0 of 9).
GFTFDDYATH | GISWNKGRIGYADSVK | VGRGGGYFDY: ND, ND, ND (controls 2 of 9).
GFTFDDYAMH | GISWNSESIGSADSVK | VGRGGFYFDY: ND, ND, ND (controls 0 of 9).
GFTPDDYAMH | GISWNSGSIGYRDSVK | VTRGGGYFDY: 4.39, 3.50, 4.78 (mean 4.22; controls 3 of 9).
GFTFPDYAMH | GISWNSGSIGPADSVK | VRRGGGYFDY: 4.54, ND, ND (controls 3 of 9).
GPTFDDYAMH | GISWNSGSIGYADSVK | VGNGGGSFDY: ND, ND, ND (controls 2 of 9).
GFTFDDWAMH | GISWNSGSIGYADSVK | AGRGGGNFDY: 3.79, 3.86, ND (mean 3.82; controls 4 of 9).
GFTFDDIVMH | GISWNSGSIGYADSVK | VGRGGYYFDY: ND, ND, ND (controls 0 of 9).
GFTFSDYAMH | GIPWDSGSIGYADSVK | VGRGGGYFDY: 4.12, 4.71, 4.35 (mean 4.39; controls 7 of 9).
GFTVDDYAMH | GISWWSGSIGYADSVK | VGRGGGAFDY: ND, ND, ND (controls 1 of 9).
GFTFDDYLMH | GISWNIGSIGYADSVK | VGRGPGYFDY: ND, ND, ND (controls 0 of 9).

Repeated from above, the 6 best binders with a signal in all replicates:

CDR-H1	CDR-H2	CDR-H3	log10 Kd, replicates	mean log10 Kd (nM)	empty controls
GFTFCNYAMH	GISWNSGSIGYADSVK	VGRGGGYFDQ	0.53, 0.52, -0.03	0.34	1/9
GFTFDDYAMH	GISWNSESIGYADSVK	VGRGGGYFDY	1.28, 0.91, 0.62	0.94	4/9
GFTFDCNAMH	GISWNSNSIGYADSVK	VGRGGGYFDY	1.59, 1.69, 1.18	1.49	1/9
GFTFDDYAMH	GISANSGSIGYADSVK	VGRGDGYFAY	1.58, 1.82, 1.32	1.57	1/9
GFTFRDYAMH	GISWNSGSIGYVDSVK	VGRGGGYFDI	1.98, 2.00, 1.65	1.88	2/9
GFTIDDSAMH	GISWNSGSIGYADSVK	VGMGGGYFDY	2.38, 2.35, 1.26	2.00	1/9

In this assay the parent's reference entry averaged 1.86; its copy inside this library read 0.88.

Source: Engelhart et al. 2022 (doi:10.1038/s41597-022-01779-4), MIT Lincoln Laboratory and A-Alpha Bio; data file from the FLAb repository.